The conditions of this series: Sheep 412, nasal drops without adjuvant.

Like-named read-outs stand apart in the source and are kept apart here.

With `CNC[C@H](O)c1ccc(O)c(O)c1` [epinephrine], the Epinephrine runs as follows: (0 min) 33 pg/mL; (10 min) 134 pg/mL; (15 min) 65 pg/mL; (30 min) 78 pg/mL; (+5 min) 86 pg/mL.

(Values after US4746508A, “Drug administration” (Beth Israel Hospital Assn., priority 1984, dated 1988).)
